By UniProt entry, the sequences of proteins in these tests, tags left out. Residues count along the entry.
UniProt P17302, 255-382: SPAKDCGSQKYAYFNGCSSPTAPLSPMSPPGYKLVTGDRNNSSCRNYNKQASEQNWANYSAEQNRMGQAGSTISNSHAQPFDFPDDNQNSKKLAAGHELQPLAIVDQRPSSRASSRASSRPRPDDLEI

According to paper PMC3666173 (Basic research in cardiology, 2012):

Target: Cx43 CT tail (AAs 255–382) (Homo sapiens, UniProt P17302)
Assay: SPR binding of purified Cx43 CT tail to immobilized biotin-peptides
Conditions: Cx43CT 7 μM, maximal response, n = 3

With CC[C@H](C)[C@H](NC(=O)CNC(=O)[C@H](Cc1ccc(O)cc1)NC(=O)[C@H](CCCCN)NC(=O)[C@H](Cc1ccccc1)NC(=O)[C@H](CCCCN)NC(=O)[C@H](CCCCN)NC(=O)[C@@H](NC(=O)[C@H](CCC(=O)O)NC(=O)[C@@H](NC(=O)[C@H](CCC(N)=O)NC(=O)[C@H](CCCCN)NC(=O)[C@H](CC(C)C)NC(=O)[C@H](Cc1c[nH]cn1)NC(=O)[C@H](CCSC)NC(=O)[C@H](CC(=O)O)NC(=O)[C@@H](NC(=O)[C@H](CC(N)=O)NC(=O)[C@H](C)NC(=O)CNC(=O)[C@@H](N)CC(=O)O)C(C)C)[C@@H](C)CC)[C@@H](C)CC)C(=O)N[C@@H](CCC(=O)O)C(=O)N[C@@H](CCC(=O)O)C(=O)N[C@@H](Cc1c[nH]cn1)C(=O)NCC(=O)N[C@@H](CCCCN)C(=O)O [L2] the “association with CT tail” value was “clear association”.
